Data published in ChEMBL document CHEMBL1132575 (J Med Chem, 1999).
pKi: −log10 of the molar value.

The chains behind the UniProt entries cited, without tags or fusion partners.
UniProt P08908, whole entry: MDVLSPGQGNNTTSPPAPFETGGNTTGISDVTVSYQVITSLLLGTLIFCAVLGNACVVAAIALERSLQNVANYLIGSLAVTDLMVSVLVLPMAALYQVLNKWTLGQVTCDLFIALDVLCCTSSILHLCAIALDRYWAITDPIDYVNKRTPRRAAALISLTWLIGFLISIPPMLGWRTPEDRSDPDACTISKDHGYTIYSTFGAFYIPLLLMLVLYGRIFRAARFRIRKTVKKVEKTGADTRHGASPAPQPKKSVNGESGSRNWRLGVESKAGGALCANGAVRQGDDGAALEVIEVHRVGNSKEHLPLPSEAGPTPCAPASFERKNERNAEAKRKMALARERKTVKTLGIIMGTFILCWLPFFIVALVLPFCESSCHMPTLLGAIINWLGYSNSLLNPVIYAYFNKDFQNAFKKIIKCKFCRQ

Target: 5-hydroxytryptamine receptor 1A (Homo sapiens, UniProt P08908)
Assay: In vitro receptor binding affinity for cloned human 5-hydroxytryptamine 1A receptor

CNS(=O)(=O)Cc1ccc2[nH]cc(CCN(C)C)c2c1
pKi: 6.64
